# Experimental data reported in PubChem BioAssay AID686940 (The Scripps Research Institute Molecular Screening Center, 2013).
# Chains of the proteins cited; added tags and fusions are not shown. Lines headed by an entry give the natural chain unless they say otherwise; changes in a name come on top.
# UniProt P24468: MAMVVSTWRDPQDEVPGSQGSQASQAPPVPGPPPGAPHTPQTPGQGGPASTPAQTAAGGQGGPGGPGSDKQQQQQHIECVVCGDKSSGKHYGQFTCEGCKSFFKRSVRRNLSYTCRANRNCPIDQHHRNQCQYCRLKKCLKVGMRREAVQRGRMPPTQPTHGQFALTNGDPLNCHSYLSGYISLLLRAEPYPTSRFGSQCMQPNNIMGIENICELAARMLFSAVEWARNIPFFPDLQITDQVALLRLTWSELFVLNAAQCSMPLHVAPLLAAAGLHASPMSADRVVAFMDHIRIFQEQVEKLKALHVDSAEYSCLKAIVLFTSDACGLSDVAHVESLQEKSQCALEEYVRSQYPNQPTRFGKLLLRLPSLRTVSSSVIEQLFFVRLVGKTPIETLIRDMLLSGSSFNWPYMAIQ
# The list shows a part of the results, in another mix than the full data. Calls of active or inactive are those of the source.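 The calls were made as follows: active = inhibition above a per-plate cutoff, mean inhibition of test wells between control levels plus 3 SD (cut at about 38% in these data); inactive = the rest.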
# Target: COUP transcription factor 2 (Homo sapiens) (UniProt P24468)
# Assay: NR2F2 transcriptional activity inhibitors, primary screen, cell-based, luciferase reporter, HEK293T, luminescence (AID 686940);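 also: cells cotransfected with COUP-TFII expression vector driving the NGFI-A reporter; 0% = median of COUP-TF2 test wells and 100% = reporter-only cells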
# Details: HEK293T NGFI-A luciferase reporter, at 8.6 µM, stronger effect = higher value
row,SMILES,inhibition
1,O=C(NC1CCS(=O)(=O)C1)NP(=S)(Oc1ccccc1)Oc1ccccc1 (stereo unspecified),inactive: -9.39%
2,O=P1(N(CCCl)CCCl)OCCC2CCCCN21 (stereo unspecified),inactive: -4.65%
3,C[C@@H]1C=CCP(=O)(Oc2ccccc2)O1 (stereo partly specified),inactive: 10.5%
4,C[C@H]1OP(=O)(Oc2ccccc2)C[C@@H]2O[C@@H]21 (stereo partly specified),inactive: 8.51%
5,Cc1ccccc1CN(C)C(=O)COC(=O)C(O)(c1ccccc1)c1ccccc1,inactive: -9.12%
6,COC(=O)C1(C)COP(=O)(NCc2ccccc2)OC1 (stereo unspecified),inactive: 2.31%
7,N#C/C(=C\c1ccc(N(CCBr)CCBr)cc1)C(N)=O,inactive: -13.9%
8,CC(=O)c1ccc(N2CC2c2ccncc2)cc1 (stereo unspecified),inactive: 8.95%
9,CC(=O)Nc1ccc(Oc2c([N+](=O)[O-])cc([N+](=O)[O-])cc2[N+](=O)[O-])cc1,inactive: 9.15%
10,CC(=O)Nc1ccc([As](=O)(O)O)c(O)c1,inactive: 14.1%
11,CCOc1ccc(C2=NCC(CBr)S2)cc1 (stereo unspecified),inactive: 5.81%
12,O=P1(Nc2nc3ccc(Cl)cc3s2)COc2ccccc2O1 (stereo unspecified),inactive: 7.97%
13,CC(C)(C)C(=O)NC(Sc1ccccc1)C(Cl)(Cl)Cl (stereo unspecified),inactive: 5.73%
14,CCc1cc(O)c([N+](=O)[O-])c(C)c1[N+](=O)[O-],inactive: 8.49%
15,O=C(NC(Sc1ccncn1)C(Cl)(Cl)Cl)c1ccccc1 (stereo unspecified),inactive: -1.58%
16,Oc1ccccc1CNc1ccccn1,inactive: 4.67%
17,CC(C)CC(=O)NC(Sc1ccc(Cl)cc1)C(Cl)(Cl)Cl (stereo unspecified),inactive: 5.72%
18,Nc1cc(N)c2nonc2c1[N+](=O)[O-],inactive: 16.5%
19,Cc1ccc(N/C(=N/P(=O)(N2CCOCC2)N2CCOCC2)N2CCOCC2)cc1,inactive: 0.66%
20,CN(C(=O)Cc1ccc(Cl)c(Cl)c1)[C@H]1CCCC[C@H]1N1CCCC1,inactive: -11%
21,NC(=O)c1cc([N+](=O)[O-])cc([N+](=O)[O-])c1N,inactive: -12.4%
22,Clc1ccc(Cl)c(NC2=NCC(CBr)S2)c1 (stereo unspecified),inactive: -5.74%
23,CN1CCCC(OC(=O)C(c2ccccc2)c2ccccc2)C1 (stereo unspecified),inactive: -0.16%
24,Cc1ccc(OP(=O)(Nc2nccs2)Oc2ccc(C)cc2)cc1,inactive: 15.8%
25,COc1ccccc1OP(=O)(Nc1ccc(C)cn1)Oc1ccccc1OC,inactive: -1.8%
26,Nc1cccc2ccc([As](=O)(O)O)cc12,inactive: 8.86%

row,SMILES,inhibition
1,CCN(N=Nc1nonc1N)c1nonc1N,inactive: 15.3%
2,CN(C(=O)Cc1ccccc1)C1CC[C@@]2(CCCO2)C[C@@H]1N1CCCC1 (stereo partly specified),inactive: 6.46%
3,CN(C)P(=O)(N(C)C)n1c(Nc2ccccc2)nnc1-c1ccccc1,inactive: -8.33%
4,O=P(Nc1nc2ccc(Cl)cc2s1)(c1ccccc1)c1ccccc1,inactive: -3.26%
5,CCCC1OP(N)(=O)OCC1CC (stereo unspecified),inactive: -4.54%
6,O=C(O)c1ccccc1[As](=O)(O)O,inactive: 0.3%
7,CC(=O)Nc1ccc([As](=O)(O)O)cc1,inactive: -12.1%
8,CCn1c(=O)n(C2CCN(CC3CCCCCCC3)C[C@H]2CO)c2ccccc21 (stereo partly specified),inactive: 8.55%
9,Cc1ccc(NP(=O)(Oc2ccccc2F)Oc2ccccc2F)nc1,inactive: 4.8%
10,CN(C(=O)Cc1ccc(Cl)c(Cl)c1)[C@H]1CCCC[C@@H]1N1CCCC1,inactive: 2.93%
11,CCOP(=O)(Nc1ccccc1)OCC,inactive: 14.5%
12,Cc1cc(SC(NC(=O)c2ccc(F)cc2)C(Cl)(Cl)Cl)ncn1 (stereo unspecified),inactive: 9.46%
13,O=[N+]([O-])c1ncn(CCn2ncnc2[N+](=O)[O-])n1,inactive: 17.5%
14,CC(C)(C)C(=O)NC(Sc1ccncn1)C(Cl)(Cl)Cl (stereo unspecified),inactive: -6.4%
15,O=C(O)CNc1ccc([As](=O)(O)O)cc1,inactive: 10.2%
16,O=[N+]([O-])c1cccc(NC2=NCC(CBr)S2)c1 (stereo unspecified),inactive: 0.43%
17,COC(=O)C1(C)COP(=O)(Nc2ccccc2)OC1 (stereo unspecified),inactive: 20.8%
18,O=P1(N(CCCl)CCCl)OCCCS1 (stereo unspecified),inactive: 6.49%
19,O=C(Nc1cc([As](=O)(O)O)ccc1O)c1ccccc1,inactive: -6.13%
20,CCN(/C(=N/P(=O)(N1CCOCC1)N1CCOCC1)N1CCOCC1)c1ccc(OC)cc1,inactive: 6.97%
21,C[N+]1=C2C=CC=CC=C2SC12C([N+](=O)[O-])=CC([N+](=O)[O-])=C[C-]2[N+](=O)[O-] (stereo unspecified),active: 86.5%
22,Nc1ccc([As](=O)(O)c2ccc(N)cc2)cc1,inactive: -4.23%
23,c1cc(-c2nn[nH]n2)ccc1-c1nn[nH]n1,inactive: -3.16%
24,CC1CCN(C(=O)Oc2c(Cl)cc(Cl)c3cccnc23)CC1,inactive: 2.81%
25,CN(C)C(=O)OCCc1n(C)cc[n+]1C,inactive: 3.59%
26,CC(C)=N/N=C(\N)N[N+](=O)[O-],inactive: 2.98%

row,SMILES,inhibition
1,CC(C)c1nc(Nc2ccccc2)n(P(=O)(N(C)C)N(C)C)n1,inactive: -9.49%
2,COc1ccc(C2=NCC(CBr)S2)cc1 (stereo unspecified),inactive: 7.2%
3,CCc1nc2c(n1)c1c(non1O)c1c2no[n+]1[O-],inactive: -2.93%
4,O=[N+]([O-])c1cc([N+](=O)[O-])c(CCNc2ccccc2)c([N+](=O)[O-])c1,inactive: 14.2%
5,Cc1ccc(NP(=O)(Oc2ccccc2)Oc2ccccc2)nc1,inactive: -11.1%
6,O=[N+]([O-])c1cccc2n[nH]nc12,inactive: 3.67%
7,CC(=O)N1C2C3N(C(C)=O)C1C1N(C(C)=O)C(C(N1C(C)=O)N3C(C)=O)N2C(C)=O,inactive: -8.21%
8,O=C(OC1CN2CCC1CC2)c1cccc([N+](=O)[O-])c1 (stereo unspecified),inactive: -0.3%
9,CCOC(=O)c1ccc(NC(=O)C(C)(CCl)SC)cc1 (stereo unspecified),inactive: -8.32%
10,CCC(C)N(CC(C)C)C(=S)SC(NC(C)=O)C(Cl)(Cl)Cl (stereo unspecified),inactive: 13.2%
11,COC(=O)C1(C)COP(=O)(N2CCCC2)OC1 (stereo unspecified),inactive: 4.76%
12,COP1(=S)c2c(C)nn(CCC#N)c2N=C(c2ccc(F)cc2)N1C (stereo unspecified),inactive: -5.38%
13,O=C(O)C(=O)c1ccc(N(CCCl)CCCl)cc1,inactive: -5.65%
14,O=C(Nc1ccncc1[N+](=O)[O-])c1ccc([N+](=O)[O-])cc1[N+](=O)[O-],inactive: 31.4%
15,O=C(COc1ccccc1)OC1CN2CCC1CC2 (stereo unspecified),inactive: -5.74%
16,CCOC(=O)Nc1cccc([As](=O)(O)O)c1,inactive: -6.3%
17,O=P(Nc1ccccn1)(c1cccc2ccccc12)c1cccc2ccccc12,inactive: -25.1%
18,Cc1cc(SC(NC=O)C(Cl)(Cl)Cl)ncn1 (stereo unspecified),inactive: -1.67%
19,O=[N+]([O-])c1ccc(Nc2ccc(Oc3ccc([N+](=O)[O-])cc3[N+](=O)[O-])cc2)c([N+](=O)[O-])c1,inactive: 20%
20,CCOC(=O)Nc1ccc([As](=O)(O)O)c(O)c1,inactive: -2.25%
21,O=C(O)C(O)c1ccc(N(CCCl)CCCl)cc1 (stereo unspecified),inactive: -12.1%
22,CC1CCNP(=O)(N(CCCl)CCCl)O1 (stereo unspecified),inactive: -17.6%
23,COP(=O)(OC)N1CC1c1ccccc1 (stereo unspecified),inactive: -4.21%
24,Cc1cc(SC(NC(=O)c2ccccc2)C(Cl)(Cl)Cl)nc(C(C)C)n1 (stereo unspecified),inactive: 12.2%
25,CCCCOc1ccc(C(=O)NCC2(N3CCCCC3)CCCCC2)cc1OC,inactive: -10.2%
26,ClCCSc1nnc(-c2cccnc2)o1,inactive: -31.1%

row,SMILES,inhibition
1,CC(C)c1ccc(OP(=O)(Nc2ccccn2)Oc2ccccc2F)cc1 (stereo unspecified),inactive: 11%
2,COC(=O)C1(C)COP(=O)(N2CCCCCC2)OC1 (stereo unspecified),inactive: -4.83%
3,O=C(OC1CN2CCC1CC2)c1cccc2[nH]cnc12 (stereo unspecified),inactive: -4.7%
4,CCN(CC)C(=S)SC(NC=O)C(Cl)(Cl)Cl (stereo unspecified),inactive: -0.03%
5,CC(C)NC(=O)NP(=O)(Oc1ccccc1)Oc1ccccc1,inactive: -8.74%
6,COc1cc(C(=O)NCC2(N3CCOCC3)CCCCC2)ccc1OCC(C)C,inactive: 6.3%
7,O=[N+]([O-])c1ccc(-c2cc([N+](=O)[O-])c(O)c([N+](=O)[O-])c2)cc1,inactive: 4.1%
8,C[As](=O)(O)c1cccc(C(=O)O)c1,inactive: -5.41%
9,O=[As](O)(c1ccc(O)cc1)c1ccccc1O,inactive: 8.12%
10,[N-]=[N+]=NC1CCCCC1NC(=O)c1cc([N+](=O)[O-])cc([N+](=O)[O-])c1 (stereo unspecified),inactive: -6.44%
11,Cc1ccc(OP(=O)(Nc2ccc([N+](=O)[O-])cn2)Oc2ccc(C)cc2)cc1,inactive: 17.2%
12,Cc1ccc2nc3c(c(C)c2c1)CC(C(Cl)Cl)S3 (stereo unspecified),inactive: -9.71%
13,O=[N+]([O-])c1cc(Oc2ccc([N+](=O)[O-])cc2C(F)(F)F)cc([N+](=O)[O-])c1,inactive: 22.3%
14,COc1ccc(N/C(=N/P(=O)(N2CCOCC2)N2CCOCC2)N2CCOCC2)cc1,inactive: 1.27%
15,Cc1c2c(nc3ccccc13)SC(C(Cl)Cl)C2 (stereo unspecified),inactive: -0.92%
16,Cc1cc(=O)[nH]c(N[N+](=O)[O-])n1,inactive: 12.8%
17,O=C(OC1CN2CCC1CC2)C12CC3CC(CC(C3)C1)C2 (stereo unspecified),inactive: -20%
18,O=P1(N(CCCl)CCCl)Nc2ccccc2N1,inactive: -37.5%
19,O=P1(N(CCCl)CCCl)OCCCN1CCCl (stereo unspecified),inactive: -0.05%
20,COc1cc(I)ccc1[As](=O)(O)O,inactive: 10.8%
21,COc1ccc2nc(NP(=O)(c3ccccc3)c3ccccc3)sc2c1,inactive: -0.54%
22,Nc1cccc2c([As](=O)(O)O)cccc12,inactive: -2.48%
23,Cc1ccc(NCCc2c([N+](=O)[O-])cc([N+](=O)[O-])cc2[N+](=O)[O-])cc1,inactive: 7.98%
